Sampled rows, rich in hits. Any-hit rate of the full collection: about 0.94%.
p-CIP stab down: p/CIP protein destabilization; F442A p/CIP-EGFP cells, EGFP fluorescence, 16 h; 290,000 tested, 0.01% active; decrease of EGFP signal, % at 10 µM; AID 1984; Q05BA5;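 active = EGFP signal decrease of at least 30% at 10 µM or well 3 SD below plate mean, unless failing retest; inactive = the rest, including hits failing retest or dose response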
ABCB6 inh 2: human ABCB6 transporter inhibition. Q9NP58. fluorescence ratio to DMSO, % at 10 µM. K562-ABCB6 porphyrin accumulation, flow cytometry, 1 h; stronger effect = lower value. AID 602162. 360,000 tested, 0.19% active;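 active = fluorescence ratio to DMSO below 75%, the collection mean minus 3 SD; inconclusive = too few cells collected in the well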;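 also: signal is porphyrin accumulated inside mitochondria; 100% equals median channel fluorescence of DMSO control wells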
PKA-R2B act: PKA-R2B complex activation. PKA-R2B holoenzyme dissociation, Cy5-IP20 fluorescence polarization; R2B truncated from residue 108, S112A mutant; 0% DMSO only, 100% 113 µM cGMP. activation, % at 11.4 µM. 340,000 tested, 0.079% active;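 active = activation above a cutoff set at the mean over all compounds plus 3 SD, cut at about 18% in these data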;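 also: higher means more holoenzyme dissociation and a rise in polarization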
Yeast UUG start-1: alters start codon recognition fidelity in yeast; AID 602363; activity score, % at 18.7 µM; 350,000 tested, 0.13% active; S. cerevisiae UUG-firefly luciferase reporter, luminescence/redox ratio;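 active means replicate mean at a twofold rise or more, about +100% in these data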;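 further: firefly luciferase made from a UUG start codon reports start codon fidelity; reporter light over untreated wells divided by growth signal over untreated wells; some hits fall short of that in this replicate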
PKA-R1A act: PKA-R1A complex activation; P00514+P68181; 340,000 tested, 0.083% active; activation, % at 11.4 µM; PKA-R1A dissociation, Cy5-IP20 fluorescence polarization; scaled: DMSO 0%, 113 µM cGMP 100%; AID 504707;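 active = percent activation above the mean of all tested compounds plus 3 SD, cut at about 19% in these data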;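 also: higher means more PKAc released from R1A so a rise in polarization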
Granule exo inh: lytic granule exocytosis inhibition. TALL-104 LAMP-1 surface exposure, flow cytometry; cells stimulated with thapsigargin and PMA. inhibition, % at 10 µM. 360,000 tested, 0.66% active. AID 651702;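 active = inhibition above about 55%, limit read from the data; inconclusive = no clear call, values can overlap the other calls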
Yeast UUG start-2: alters UUG start codon use in yeast; S. cerevisiae UUG-start firefly luciferase, luminescence, 4 h; 100% means double the DMSO signal; AID 652061; activation, % at 38 µM; 540 tested, under 10 active; shares compounds with Yeast UUG start-1;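 active = signal increase whose fitted curve reaches an absolute level of 40 at a concentration under 10 µM; inactive = activity opposite to the expected increase, or the rest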
Exocytosis CP01: lytic granule exocytosis inhibition. AID 651954. shares compounds with Granule exo inh. TALL-104 cells, LAMP-1 externalization, flow cytometry; stimulated with PMA plus thapsigargin. inhibition, % at 10 µM. 1,500 tested, 11% active; in the data active = inhibition above about 60%;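 also: 0% = stimulated vehicle wells and 100% = unstimulated wells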
* = called active by the depositor; ? = inconclusive; . = not tested or not shown.

SMILES	p-CIP stab down	ABCB6 inh 2	PKA-R2B act	Yeast UUG start-1	PKA-R1A act	Granule exo inh	Exocytosis CP01	others
COc1ccc(NC(=O)N(C)C[C@@H]2Oc3ccc(NC(=O)NC(C)C)cc3CC(=O)N([C@@H](C)CO)C[C@H]2C)cc1	.	.	.	-5	.	.	.
O=c1cc(CO)occ1OCc1ccccc1	-3	94	-3	484*	-9	-1	.	Yeast UUG start-2=7
C[C@H]1CN([C@@H](C)CO)C(=O)c2cc(C#Cc3ccc(F)cc3)cnc2O[C@H]1CN(C)Cc1ccccn1	.	.	.	-17	.	.	.
Cc1ccc(-c2nn(-c3ccccc3)cc2/C=C2\SC(=S)N(CC(=O)O)C2=O)cc1	-10	103	1	527*	-8	-3	.	Yeast UUG start-2=2
COc1ccc(-c2nn(-c3ccccc3)cc2/C=C2/SC(=S)N(CCC(=O)O)C2=O)cc1	-1	92	-5	6	-3	?	.
COc1ccc(Cl)cc1NC(=O)CSc1nc2[nH]ncc2c(=O)[nH]1	.	96	-8	109*	-7	-2	.	Yeast UUG start-2=4
CCCCCc1c(-c2cccc(Cl)c2)ncn1CCc1ccccc1OC	.	121	.	.	.	-5	.
CCCCCc1c(-c2cccc(F)c2)ncn1CCc1ccccc1OC	.	112	.	.	.	56*	68*
CCCCc1c(-c2cccc(F)c2)ncn1CCc1ccccc1OC	.	114	.	.	.	35	.
CCCCCc1c(-c2cccc(OC)c2)ncn1CCc1ccccc1OC	.	113	.	.	.	76*	47
CCCCCc1c(-c2ccccc2OC)ncn1CCc1ccccc1OC	.	114	.	.	.	68*	39
CO[C@H]1CN(C)C(=O)c2cc(NC(C)=O)ccc2OC[C@H](C)N(Cc2cccc(F)c2)C[C@H]1C	.	.	.	7	.	.	.
C[C@@H]1CCCCO[C@@H](CN(C)C)[C@H](C)CN([C@@H](C)CO)C(=O)c2cc(NS(=O)(=O)c3cccs3)ccc2O1	.	.	.	-5	.	.	.
COc1cccc(-c2cnc3c(c2)C(=O)N([C@H](C)CO)C[C@H](C)[C@H](CN(C)C(=O)CN(C)C)O3)c1	.	.	.	0	.	.	.
C[C@H](CO)N1C[C@H](C)[C@H](CN(C)C(=O)Nc2ccc3c(c2)OCO3)Oc2c(NC(=O)C3CCOCC3)cccc2C1=O	.	.	.	-8	.	.	.

In the list so far, 2 contain a COOH group.
SMILES	p-CIP stab down	ABCB6 inh 2	PKA-R2B act	Yeast UUG start-1	PKA-R1A act	Granule exo inh	Exocytosis CP01	others
Cc1ccc(-c2nn(-c3ccccc3)cc2/C=C2\SC(=S)N(CC(=O)O)C2=O)cc1	-10	103	1	527*	-8	-3	.	Yeast UUG start-2=2
COc1ccc(-c2nn(-c3ccccc3)cc2/C=C2/SC(=S)N(CCC(=O)O)C2=O)cc1	-1	92	-5	6	-3	?	.

Continuation:
SMILES	p-CIP stab down	ABCB6 inh 2	PKA-R2B act	Yeast UUG start-1	PKA-R1A act	Granule exo inh	Exocytosis CP01	others
COc1cc2nc(Nc3ccc(F)cc3)nc(N)c2cc1OC	-7	98	0	-4	-2	65*	-11
COc1ccc(S(=O)(=O)N(C)C[C@@H]2OCCCC[C@@H](C)Oc3ccc(NC(=O)CCC(F)(F)F)cc3C(=O)N([C@H](C)CO)C[C@H]2C)cc1	.	.	.	16	.	.	.
O=C(C[C@@H]1CC[C@H](NC(=O)Nc2ccc(C(F)(F)F)cc2)[C@@H](CO)O1)NCCN1CCCC1	.	.	.	-5	.	.	.
CCCCn1c(NCc2ccc3c(c2)OCO3)nc2ccccc21	9	101	0	-2	5	67*	-3
CCCn1c(NCc2ccc3c(c2)OCO3)nc2ccccc21	-14	101	12	-16	-10	0	.
COc1ccc(/C=C/c2onc(C)c2S(=O)(=O)N2CCC(C(=O)N3CCC(C)CC3)CC2)cc1	-20	93	-12	-18	2	76*	-14
Cc1noc(C)c1NC(=O)Nc1ccc2c(c1)C(=O)N([C@H](C)CO)C[C@H](C)[C@H](CN(C)C(=O)Nc1ccccc1)OCCCC[C@H](C)O2	.	.	.	24	.	.	.
C[C@@H]1CC=C[C@H]2[C@H]1C(=O)N(Cc1ccccc1)[C@H]2c1ccc(F)c(-c2ccc(N(C)C)cc2)c1	-7	100	-9	-21	3	-7	.
CC(=O)c1ccc(-c2cc([C@H]3[C@H]4C=CC[C@@H](C)[C@@H]4C(=O)N3Cc3ccccc3)ccc2F)cc1	-5	102	-1	-8	-8	58*	-14
COC(=O)C[C@H]1C[C@H]2c3cc(NS(=O)(=O)c4cccc(OC)c4)ccc3O[C@H]2[C@H](CO)O1	.	.	.	-9	.	.	.

2 neighbouring records already listed, quoted:
SMILES	p-CIP stab down	ABCB6 inh 2	PKA-R2B act	Yeast UUG start-1	PKA-R1A act	Granule exo inh	Exocytosis CP01	others
CC(=O)c1ccc(-c2cc([C@H]3[C@H]4C=CC[C@@H](C)[C@@H]4C(=O)N3Cc3ccccc3)ccc2F)cc1	-5	102	-1	-8	-8	58*	-14
COC(=O)C[C@H]1C[C@H]2c3cc(NS(=O)(=O)c4cccc(OC)c4)ccc3O[C@H]2[C@H](CO)O1	.	.	.	-9	.	.	.

Compound activity from PubChem BioAssay.
